Test results from US12343326B2, “Psychoactive medicines and their use for treating psychiatric and neurological conditions and disorders” (Transcend Therapeutics, Inc., priority 2021, dated 2025).

Assay: Excipient compatibility study (appearance, assay, related substances)
Format: physicochemical
Method: In this Example, the physical and chemical compatibility of methylone drug substance, 50 mg with various commonly used solid dosage form excipients, as well as methylone active pharmaceutical ingredient (API) alone, was analyzed. Analyses were conducted at t=0, 2, 4 and 8 weeks for appearance, assay, and related substances for samples stored in closed vials at 25° C./60% RH and 40° C./75% RH.
Excipient Compatibility Sample Mixtures: The excipients and API were dispensed individually by weight into 20 mL clear borosilicate (type I) glass vials to fill the appropriate weights as listed in Table 12. Table 12 lists mixtures of API with varied excipients and a stand-alone control sample of API alone. Each excipient mixture sample preparation was conducted using a clean spatula to mix the vial ingredients for 30-60 seconds. Each vial was properly labeled with the description and storage conditions. One vial was used for testing at the initial (t=0) time point. Three vials, closed, were placed at each storage condition to allow sampling at each time point and one vial, closed, was placed at each storage condition for overage.
Excipient Compatibility Sample Analysis: Each individual vial sampled at the requested time points was analyzed for the following parameters: (a) Appearance (Visual); Assay (HPLC); (c) Related Substances (HPLC).

In the case of CNC(C)C(=O)c1ccc2c(c1)OCO2 (stereo not shown) [methylone, 3,4-methylenedioxy-N-methylcathinone], the “Assay (% Recovery)” value (2 Week 25° C./60% RH, closed vial) is reported as 99.7%, the “Assay (% Recovery)” value (4 Week 40° C./75% RH, closed vial) is reported as 99.6% and the “Assay (% Recovery)” value (8 Week 25° C./60% RH, closed vial) is reported as 98.2%. For the same compound, the “Assay (% Recovery)” value (t = 0) was 100.6%.
